Data from ChEMBL document CHEMBL1124016, “Antihypertensive activity in a series of 1-piperazino-3-phenylindans with potent 5-HT2-antagonistic activity” (J Med Chem, 1988).

Protein sequences, listed by entry. Tags and fused reporters are not part of them. Lines headed by an entry give the natural chain unless they say otherwise; changes in a name come on top.
UniProt P30994: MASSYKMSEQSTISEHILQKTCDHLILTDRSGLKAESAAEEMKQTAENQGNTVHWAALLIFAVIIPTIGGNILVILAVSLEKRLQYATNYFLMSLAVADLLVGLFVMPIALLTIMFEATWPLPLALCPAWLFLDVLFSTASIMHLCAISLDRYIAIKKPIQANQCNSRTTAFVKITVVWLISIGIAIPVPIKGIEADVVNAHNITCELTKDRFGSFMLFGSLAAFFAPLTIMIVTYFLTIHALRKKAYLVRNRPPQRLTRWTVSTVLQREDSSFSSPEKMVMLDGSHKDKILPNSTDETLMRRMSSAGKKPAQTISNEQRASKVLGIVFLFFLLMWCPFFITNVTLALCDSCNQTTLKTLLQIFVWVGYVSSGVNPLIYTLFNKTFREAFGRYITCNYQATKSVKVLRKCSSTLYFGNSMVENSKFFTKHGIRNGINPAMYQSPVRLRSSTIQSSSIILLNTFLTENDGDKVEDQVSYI
UniProt P08909: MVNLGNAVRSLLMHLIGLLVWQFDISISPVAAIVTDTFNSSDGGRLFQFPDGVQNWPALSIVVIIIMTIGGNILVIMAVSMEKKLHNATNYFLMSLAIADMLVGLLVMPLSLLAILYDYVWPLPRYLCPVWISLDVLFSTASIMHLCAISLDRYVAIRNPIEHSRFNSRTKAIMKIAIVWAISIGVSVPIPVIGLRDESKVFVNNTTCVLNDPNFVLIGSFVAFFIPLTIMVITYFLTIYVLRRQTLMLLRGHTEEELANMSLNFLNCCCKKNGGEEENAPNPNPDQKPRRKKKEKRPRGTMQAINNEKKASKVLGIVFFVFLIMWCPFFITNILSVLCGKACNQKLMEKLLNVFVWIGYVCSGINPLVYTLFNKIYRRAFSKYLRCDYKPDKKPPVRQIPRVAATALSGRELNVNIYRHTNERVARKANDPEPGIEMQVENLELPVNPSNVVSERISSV
UniProt P14842: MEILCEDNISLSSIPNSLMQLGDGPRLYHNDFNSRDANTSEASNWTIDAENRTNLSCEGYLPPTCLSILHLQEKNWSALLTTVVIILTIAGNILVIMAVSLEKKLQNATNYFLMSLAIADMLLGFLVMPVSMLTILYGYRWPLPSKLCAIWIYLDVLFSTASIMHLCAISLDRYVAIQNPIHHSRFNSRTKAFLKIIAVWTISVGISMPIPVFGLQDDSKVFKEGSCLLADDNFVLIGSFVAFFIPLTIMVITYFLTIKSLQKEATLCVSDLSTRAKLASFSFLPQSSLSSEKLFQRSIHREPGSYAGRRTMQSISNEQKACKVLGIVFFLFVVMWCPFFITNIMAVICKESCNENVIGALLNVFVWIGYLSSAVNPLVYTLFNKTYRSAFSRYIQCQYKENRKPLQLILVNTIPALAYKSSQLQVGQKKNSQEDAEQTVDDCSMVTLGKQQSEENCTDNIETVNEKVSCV

Target: Serotonin 2 (5-HT2) receptor (Rattus norvegicus, UniProt P30994+P08909+P14842)
Assay: Inhibition of [3H]spiperone binding to 5-hydroxytryptamine 2 receptor from rat cortical membranes
Type: cell membranes, Membrane

IC50: 4.4 nM
SMILES: Cc1nc2sccn2c(=O)c1CCN1CCC(=C(c2ccc(F)cc2)c2ccc(F)cc2)CC1 [RITANSERIN]
